Measured values as given in US20240209053A1 (Protagonist Therapeutics, Inc., priority 2021, published 2024).

Columns and labels:
[1] = target: T1, human ferroportin (SLC40A1) (Homo sapiens, UniProt Q9NP59); assay: FPN activity assay: internalization/degradation of ferroportin-GFP in stably transfected HEK293 cells (decrease in GFP fluorescence); assay type: cell-based; settings: Table 6B, Formula (X) peptides
T1 sequence (Q9NP59 1-571): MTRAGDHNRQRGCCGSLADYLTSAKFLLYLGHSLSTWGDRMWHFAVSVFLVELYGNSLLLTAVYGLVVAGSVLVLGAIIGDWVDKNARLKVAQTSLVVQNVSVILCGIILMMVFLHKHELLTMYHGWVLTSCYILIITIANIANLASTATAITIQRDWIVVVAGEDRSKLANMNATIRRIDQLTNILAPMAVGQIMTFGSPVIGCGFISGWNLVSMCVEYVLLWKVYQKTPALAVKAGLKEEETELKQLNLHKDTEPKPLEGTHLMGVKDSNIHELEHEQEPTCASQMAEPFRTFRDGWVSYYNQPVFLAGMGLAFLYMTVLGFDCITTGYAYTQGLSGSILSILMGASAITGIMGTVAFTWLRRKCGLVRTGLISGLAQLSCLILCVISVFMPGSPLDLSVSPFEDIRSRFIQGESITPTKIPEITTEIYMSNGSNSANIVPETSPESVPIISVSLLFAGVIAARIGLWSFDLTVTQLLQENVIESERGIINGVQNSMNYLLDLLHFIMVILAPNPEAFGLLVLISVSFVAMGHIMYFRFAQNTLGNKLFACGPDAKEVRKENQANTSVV
Method: Peptide analogues were tested in vitro for induction of internalization of the human ferroportin protein. Following internalization, the ferroporin protein is degraded. The assay used (FPN activity assay) measures a decrease in fluorescence of the receptor. The cDNA encoding the human ferroportin (SLC40A1) was cloned from a cDNA clone from Origene (NM_014585). The DNA encoding the ferroportin was amplified by PCR using primers also encoding terminal restriction sites for subcloning, but without the termination codon. The ferroportin receptor was subcloned into a mammalian GFP expression vector containing a neomycin (G418) resistance marker in such that the reading frame of the ferroportin was fused in frame with the GFP protein. The fidelity of the DNA encoding the protein was confirmed by DNA sequencing. HEK293 cells were used for transfection of the ferroportin-GFP receptor expression plasmid. The cells were grown according to standard protocol in growth medium and transfected with the plasmids using Lipofectamine (manufacturer's protocol, Invitrogen). The cells stably expressing ferroportin-GFP were selected using G418 in the growth medium (in that only cells that have taken up and incorporated the cDNA expression plasmid survive) and sorted several times on a Cytomation MoFloTM cell sorter to obtain the GFP-positive cells (488 nm/530 nm). The cells were propagated and frozen in aliquots. […] Compound was added to desired final concentration for at least 18 hours in the incubator. Following incubation, the remaining GFP-fluorescence was determined either by whole cell GFP fluorescence (Envision plate reader, 485/535 filter pair), or by Beckman Coulter QuantaTM cytometer (express as Geometric mean of fluorescence intensity at 485 nm/525 nm). Compound was added to desired final concentration for at least 18 hours but no more than 24 hours in the incubator. […] The “RI” in RI-Mini-Hepcidin refers to Retro Inverse. A retro inverse peptide is a peptide with a reversed sequence in all D amino acids. An example is that […] becomes […]. The EC50 of these reference compounds for ferroportin internalization/degradation was determined according to the FPN activity assay described above. These peptides served as control standards.

ferroportin = target: T2, ferroportin (Homo sapiens, UniProt Q9NP59); assay: T47D cell-based ferroportin internalization assay in presence of 0.5% mouse serum albumin (MSA); settings: Table 6B, T47D cells
T2 sequence (Q9NP59 1-571): T1 sequence (Q9NP59 1-571)
Method: The potency of the peptides in causing ferroportin internalization was evaluated in a T47D cell-based assay. […] In this internalization assay, the potency of the test peptides was evaluated in presence of serum albumin which is the main protein component in the blood. T47D cells were maintained in RPMI media (containing required amount of fetal bovine serum) and regularly sub-cultured. In preparation for the assay, the cells were seeded in 96-well plates at a density of 80-100 k cells per well in 100 ul volume and allowed to rest overnight. On the next day, test peptides were first prepared in dilution series (10-point series, starting concentration of ˜5 μM, typically 3-4×fold dilution steps), all with 0.5% mouse serum albumin (MSA purified from mouse serum; Sigma, A3139). The test peptide dilution series were allowed to incubate at room temperature for 30 min. Then the media was aspirated from the 96-well cell plate and test peptide dilution series were added. After 1 hr incubation, the media with test peptides was aspirated out and AF647-conjugated detection peptide was added at fixed concentration of 200 nM. The AF647-conjugated detection peptide was previously verified to bind to ferroportin and cause its internalization. The cells were washed again after a 2 hr incubation in preparation for flow cytometry analysis. The Median Fluorescence Intensity (MFI) of the AF647-positive population was measured (after removing dead cells and non-singlets from the analysis). The MFI values were used to generate a dose-response curve and obtain IC50 potencies for the test peptides. The IC50 potencies were calculated by using 4-parameter non-linear fitting function in Graphpad Prism (Table 6A).

Row | IC50 [1] [nM] | IC50 (ferroportin) [nM] | Compound
1 | 1 to 10 | 1 to 10 | CCCCCCCCCCCCCCCC(=O)NCCCCCC(=O)NCCCC[C@H](NC(=O)C[C@H](Cc1ccccc1)NC(=O)[C@@H]1CCC/C=C/CCC[C@H](NC(=O)CC(C)C)C(=O)N[C@@H]([C@@H](C)O)C(=O)N[C@@H](Cc2c[nH]cn2)C(=O)N[C@@H](C(c2ccccc2)c2ccccc2)C(=O)N2CCC[C@H]2C(=O)N[C@@H](C)C(=O)N[C@@H]([C@@H](C)CC)C(=O)N1)C(=O)N[C@H](CCCNC(=N)N)C(N)=O [compound 114]
2 | 10 to 100 | 10 to 100 | CC[C@H](C)[C@@H]1NC(=O)[C@H](CCCCNC(=O)COCCOCCNC(=O)COCCOCCNC(=O)C[N+](C)(C)CCNC(=O)CCCCCCCCCCCCCCCCC(=O)O)NC(=O)[C@@H]2CCCN2C(=O)[C@H](C(c2ccccc2)c2ccccc2)NC(=O)[C@H](Cc2c[nH]cn2)NC(=O)[C@H]([C@@H](C)O)NC(=O)[C@@H](NC(=O)CC(C)C)CCC/C=C/CCC[C@@H](C(=O)N[C@H](CC(=O)N[C@H](CCCCN)C(N)=O)Cc2ccccc2)NC1=O [compound 120]
3 | 10 to 100 | 10 to 100 | CC[C@H](C)[C@@H]1NC(=O)[C@H](CCCCNC(=O)COCCOCCNC(=O)COCCOCCNC(=O)[C@H](CN)NC(=O)CCCCCCCCCCCCCCCCC(=O)O)NC(=O)[C@@H]2CCCN2C(=O)[C@H](C(c2ccccc2)c2ccccc2)NC(=O)[C@H](Cc2c[nH]cn2)NC(=O)[C@H]([C@@H](C)O)NC(=O)[C@@H](NC(=O)CC(C)C)CCC/C=C/CCC[C@@H](C(=O)N[C@H](CC(=O)N[C@H](CCCCN)C(N)=O)Cc2ccccc2)NC1=O [compound 121]
